Values of other authors, collected in publication PMC8401933 (Molecules, 2021).

System: CK2 holoenzyme
Conditions: quantity not named; cited from earlier work

In the case of `O=C1c2ccc(O)c(O)c2C(=O)c2c(O)ccc(O)c21` [quinalizarin, 1,2,5,8-tetrahydroxyanthraquinone], the “inhibitor potency for CK2 holoenzyme” value is given as 0.058 µM.
